## Measured affinities in a library of Ab-14 heavy chain variants

Target: peptide PDVDLGDISGINAS, taken from heptad repeat 2 (HR2) of SARS-CoV-2 spike.

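The starting antibody came from a phage panning campaign against this peptide. Designed CDR sequences, proposed from the first random library and measured here. Several design methods are mixed in this list. The scFvs were displayed on barcoded MATa yeast, the peptide on MATalpha yeast. Binding brings cells together so that they mate, and sequencing counts the barcode pairs among the diploids. Scores were corrected for input abundance and mapped to Kd with protein pairs of known affinity run in the same pool. Each pool was mated in six replicate cultures.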

Parent: Ab-14, a human scFv built as VH, three GGGGS repeats, VL. Only the CDRs of the heavy chain vary.
VH: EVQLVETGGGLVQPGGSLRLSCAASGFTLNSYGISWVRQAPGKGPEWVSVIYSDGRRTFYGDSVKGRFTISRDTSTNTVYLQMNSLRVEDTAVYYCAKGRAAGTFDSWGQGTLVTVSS
VL: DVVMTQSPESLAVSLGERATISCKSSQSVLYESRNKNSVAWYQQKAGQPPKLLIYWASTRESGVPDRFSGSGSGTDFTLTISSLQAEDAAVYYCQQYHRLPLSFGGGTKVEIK

Each variant is given by its three heavy chain CDRs, as the data file delimits them; those of the parent are GFTLNSYGIS, VIYSDGRRTFYGDSVK, GRAAGTFDS.
Scale: log10 of Kd in nM, estimated from mating counts; low values are strong binders.
A mean of the replicates is given; it leaves out those without a signal.
An entry "nd" has no value in the source: the pair was not observed among the diploids in any replicate. This suggests poor binding but is not conclusive.
Entries are sorted by rising average, undetected variants last.
The parent sequence was in this pool as ten entries: three were never detected, three once, and four in most replicates, with averages from 0.34 to 2.37.
The authors averaged sequences with at least three values out of six and counted those with two or fewer as poor binders.
A sequence measured in both rounds can read differently, since the two assays cover different ranges.
Three control strains display no target. For all heavy chain designs, 1% of the pairings with them gave a signal, with a median of 2.08 and one signal in twenty below 0.84, so weak values seen in few replicates may be background.

CDR-H1 | CDR-H2 | CDR-H3 | mean, log10 nM | replicates with signal
GFDLEDYGIS | VIYADGRRTAYADSVK | GNVAGTFDV | -0.80 | 6/6
GFDLNEYGIS | VIYADGQRTAYADSVK | GKVAGTFDL | -0.76 | 6/6
GFSLDEYGIS | VIYADGRRTFYQDDVK | GNVAGTFDI | -0.72 | 6/6
GFTLDEYGIS | VIYADGRRTFYADSVK | GEVAGTFDQ | -0.62 | 6/6
GFDLNEYGIS | VIYADGMRTVYADSVK | GQVAGTFDL | -0.60 | 6/6
GFDLNEYGIS | VIYADGMRTQYSDSVK | GNVAGTFDV | -0.46 | 6/6
GFDLNEYGIS | VIYADGMRTFYTDSVK | GQNAGTFDV | -0.42 | 6/6
GFDLDEYGIS | VIYADGQRTAYSDSVK | GGNAGTFDV | -0.36 | 6/6
GFDLNSYGIS | VIYSDGRRTFYSDSVK | GREAGTFDT | -0.31 | 6/6
GFDLNEYGIS | VIYADGRRTFYSDSVK | GANAGTFDK | -0.27 | 6/6
GFSLNEYGIS | VIYSDGRRTFYHDSVK | GSAAGTFDS | -0.24 | 6/6
GFELNSYGIS | VIYADGRRTFYGDSVK | GRMAGTFDT | -0.20 | 6/6
GFDLNEYGIS | VIYADGMRTQYIDSVK | GEQAGTFDS | -0.13 | 6/6
GFDLNEYGIS | VIYADGMRTMYADSVK | GNVAGTFDL | -0.01 | 6/6
GFTLNSYGIS | VIYADGRRTFYGDSVK | GKAAGTFDA | 0.08 | 6/6
GFDLNEYGIS | VIYADGMRTAYTDDVK | GENAGTFDV | 0.22 | 6/6
GFDLNSYGIS | VIYSDGRRTFYADSVK | GRAAGTFDM | 0.37 | 6/6
GFTLDSYGIS | VIYSDGRRTFYGDSVK | GRAAGTFDK | 0.37 | 1/6
GFELNTYGIS | VIYSDGRRTFYGDSVK | GKAAGTFDT | 0.42 | 6/6
GFPLNSYGIS | VIYSDGRRTFYQDSVK | GQLAGTFDS | 0.55 | 3/6
GFELNNYGIS | VIYSDGRRTFYSDAVK | GKAAGTFDS | 0.55 | 6/6
GFDLNEYGIS | VIYADGSRTFYSDSVK | GNQAGTFDL | 0.55 | 6/6
GFTLNSYGIS | VIYSDGKRTFYGDDVK | GRNAGTFDT | 0.93 | 6/6
GFDLEEYGIS | VIYADGKRAQYTDAVK | GEFLDMMTY | 0.94 | 6/6
GFTLNSYGIS | VIYSDGRRVFYGDSVK | GRVAGTFDS | 0.96 | 5/6
GFDLNSYGIS | VIYSDGRRTFYSDRVK | GEAAGTFDS | 0.99 | 6/6
GFSLNSYGIS | VIYSDGRRTFYADSVK | GRYAGTFDS | 1.02 | 6/6
GFNLNSYGIS | VIYSDGRRTFYGDDVK | GRAAGTFDS | 1.14 | 6/6
GFTLNSYGIS | VIYSDGRRTFYGDAVK | GQTAGTFDS | 1.15 | 6/6
GFTLNQYGIS | VIYSDGQRTFYIDSVK | GRAAGTFDS | 1.16 | 6/6
HFPLNSYGIS | VIYSDGRRTFYGDSVA | LRAAGLFDS | 1.34 | 1/6
GFDLDEYGIS | VIYADGHRTNYSTSVK | GTIGGTFFQ | 1.36 | 1/6
GFKLNSYGIS | VIYSDGRRTFYTDSVK | GRTAGTFDS | 1.40 | 3/6
GFTLNSYGIS | VIYSDGRRTFYLDSVK | GSAAGTFDV | 1.43 | 6/6
GKSLNSYGIS | VIYADGRRTFYGDSVK | GRAAGTFDS | 1.59 | 2/6
GFTLNSYGIS | VIYSDGRRTFYDDQVK | GQLAGTFDS | 2.18 | 6/6
GFQINEYGIS | VIYADGLRAAYSQEVK | GQDTGNFVD | 2.21 | 2/6
LFSLNEYGIS | VIYSDGRRTFYRDSVK | GRTAGTFDS | 2.48 | 5/6
GFKLDEYGIS | VIYADGIRTVYADDVK | GLLKGHTLT | 3.09 | 1/6
GFALDSYGIS | VIYSDGRRTFYGDSVK | GRAADTFDS | nd | 0/6
GQQLDQYGIS | VIYADGVRTSYTNSVK | GVHAGTFMQ | nd | 0/6
GFTLNSYGIS | VIYSDGRRTFYGDSVK | GRNAHTFDS | nd | 0/6
GFTLNSYGIS | VIYSDGRRTFYGDSVK | GRAAGEFSL | nd | 0/6
GFTLNSYGIS | VIYSDGRRTFYGDSVK | GPAAGLFPL | nd | 0/6
GFTLNSYGIS | VIYSDGRRTFYGDSVK | GRGAGTFDS | nd | 0/6
GFDLNEYGIS | VIYADGMRTFYDDSVK | GQTAGTFDF | nd | 0/6
GFDLEKYGIS | VIYADGKRVAYSDAVK | GGTGGMLMS | nd | 0/6
GENLDEYGIS | VIYADGVREAYANNVK | GEQGGYFIT | nd | 0/6
GFHLNSYGIS | VIYADGRRTFYGDSVK | GRAAGTNDS | nd | 0/6
GFTLNDYCIS | VEYSDGRRTFYGDSVK | GREALCFIS | nd | 0/6
GFTLNDYGIS | VIYYDGRRTFYGDSVK | GRAALTYIS | nd | 0/6
GFTLNSYGIS | VIYSDGRRTFYADSVK | GQAAGTFDL | nd | 0/6
GFTLMQYGIS | VIYSDGRRTFYGDAVK | LYIAGTFDS | nd | 0/6
GFTLNSYGIS | VIYADGRRTFYIVAVK | GRAAGTFDS | nd | 0/6
GFTLNSYGIS | VIYSDGRRTFYGDSVK | GRASGPFDS | nd | 0/6
GYDLTEYGIS | VIYADGRRTAYSQSVK | GLNGGIIVV | nd | 0/6
GYDLDDYGIS | VIYADGKRTSYAEDVK | GNIGGSLMN | nd | 0/6
GFTLNSYGIS | VIYSLGRRTFYGDSVK | GRAALTFDS | nd | 0/6
GFSLDEYGIS | VIYADGRRTQYDDSFK | GTGDFDIEG | nd | 0/6

Top 10 of the variants detected in all replicates, tightest first:

CDR-H1	CDR-H2	CDR-H3	mean, log10 nM	replicates with signal
GFDLEDYGIS	VIYADGRRTAYADSVK	GNVAGTFDV	-0.80	6/6
GFDLNEYGIS	VIYADGQRTAYADSVK	GKVAGTFDL	-0.76	6/6
GFSLDEYGIS	VIYADGRRTFYQDDVK	GNVAGTFDI	-0.72	6/6
GFTLDEYGIS	VIYADGRRTFYADSVK	GEVAGTFDQ	-0.62	6/6
GFDLNEYGIS	VIYADGMRTVYADSVK	GQVAGTFDL	-0.60	6/6
GFDLNEYGIS	VIYADGMRTQYSDSVK	GNVAGTFDV	-0.46	6/6
GFDLNEYGIS	VIYADGMRTFYTDSVK	GQNAGTFDV	-0.42	6/6
GFDLDEYGIS	VIYADGQRTAYSDSVK	GGNAGTFDV	-0.36	6/6
GFDLNSYGIS	VIYSDGRRTFYSDSVK	GREAGTFDT	-0.31	6/6
GFDLNEYGIS	VIYADGRRTFYSDSVK	GANAGTFDK	-0.27	6/6

Source: Li et al. 2023 (doi:10.1038/s41467-023-39022-2), MIT Lincoln Laboratory and A-Alpha Bio; data file from the FLAb repository.